# B1: IFNβ: interferon-beta, Type 1 interferon, spherical protein of 22 kDa (protein)
# chain: MSYNLLGFLQRSSNFQCQKLLWQLNGRLEYCLKDRMNFDIPEEIKQLQQFQKEDAALTIYEMLQNIFAIFRQDSSSTGWNETIVENLLANVYHQINHLKTVLEEKLEKEDFTRGKLMSSLHLKRYYGRILHYLKAKEYSHCAWTIVRVEILRNFYFINRLTGYLRN
# modifications: Human Interferon-beta
# notes: interferon-beta, Type 1 interferon, spherical protein of 22 kDa
# Assays:
# Assay in all cases: WST cell viability, siRNA with Carbiferon, ACFP or Herceptin
# Assay type in all cases: cell-based
# Conditions in all cases: compared with cells normally responding to IFNβ, data not shown
# [1] = tested on: SNU-216 cell line (gastric cancer cells)
# Protocol: (§1) In order to investigate cell apoptotic ability by co-treatment of the selected cFLIP siRNAs together and Carbiferon or ACFP, SK-OV-3, SNU-216, and NCI-N87 cells were dispensed at 1×10^4 cells/well in a 24-well plate, and incubated at 37.5° C. in a 5% CO2 environment for 24 hours. ACFP is a fusion protein in which Carbiferon (R27T) is fused to a terminus of the heavy chain of Herceptin. After 24 hours, the cell culture was removed, and 10 nM siRNA was mixed with Dharmafect transfection reagent, and the cells were treated with the mixture after the incubation at room temperature for 15 minutes. After 24-hour treatment, the culture was removed, and the cells were treated with 100 ng/ml of Carbiferon, ACFP, and Herceptin and additionally incubated for 48 hours. Thereafter, the culture was removed, followed by washing three times with PBS. Then, WST reagent was mixed with the culture at 1:10, and each well were treated with the mixture, and incubated at 37.5° C. in a 5% CO2 atmosphere for 2 hours. The absorbance was measured at a wavelength of 430 nm.
# [2] = tested on: SK-OV-3 cell line (ovarian cancer cells)
# Protocol: as §1
# [3] = tested on: NCI-N87 cell line (gastric cancer cells)
# Protocol: as §1
molecule,measurement,setting,value
B1,response of the cell line to IFNβ,[1],do not respond to IFNβ at all
same,response of the cell line to IFNβ,[2],very low sensitivity
same,response of the cell line to IFNβ,[3],very low sensitivity
